This note sets out measurements from ChEMBL document CHEMBL1138891, “3-(4-Piperidinyl)indoles and 3-(4-piperidinyl)pyrrolo-[2,3-b]pyridines as ligands for the ORL-1 receptor” (Bioorg Med Chem Lett, 2006).

Chains of the proteins cited; added tags and fusions are not shown. Lines headed by an entry give the natural chain unless they say otherwise; changes in a name come on top.
UniProt P41143, whole entry, looked up: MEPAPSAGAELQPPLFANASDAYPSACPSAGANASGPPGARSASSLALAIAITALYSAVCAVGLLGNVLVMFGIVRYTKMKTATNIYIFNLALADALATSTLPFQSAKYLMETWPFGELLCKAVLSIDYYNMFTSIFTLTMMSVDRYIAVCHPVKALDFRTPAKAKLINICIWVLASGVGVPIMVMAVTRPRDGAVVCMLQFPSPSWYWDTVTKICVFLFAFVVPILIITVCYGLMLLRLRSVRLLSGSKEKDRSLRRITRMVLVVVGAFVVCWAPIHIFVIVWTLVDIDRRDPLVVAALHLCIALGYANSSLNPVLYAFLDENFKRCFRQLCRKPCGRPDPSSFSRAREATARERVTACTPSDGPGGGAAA
UniProt P35372, whole entry, looked up: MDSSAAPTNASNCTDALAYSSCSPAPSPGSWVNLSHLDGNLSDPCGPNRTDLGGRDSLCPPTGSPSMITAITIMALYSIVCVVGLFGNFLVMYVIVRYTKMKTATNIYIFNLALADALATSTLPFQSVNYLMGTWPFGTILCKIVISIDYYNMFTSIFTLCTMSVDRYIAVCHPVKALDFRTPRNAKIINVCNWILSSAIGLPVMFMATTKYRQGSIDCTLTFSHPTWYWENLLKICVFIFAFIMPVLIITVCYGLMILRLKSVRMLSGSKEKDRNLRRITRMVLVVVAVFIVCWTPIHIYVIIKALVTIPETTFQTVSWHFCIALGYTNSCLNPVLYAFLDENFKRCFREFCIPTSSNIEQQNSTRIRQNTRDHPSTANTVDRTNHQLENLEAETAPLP
UniProt P41145: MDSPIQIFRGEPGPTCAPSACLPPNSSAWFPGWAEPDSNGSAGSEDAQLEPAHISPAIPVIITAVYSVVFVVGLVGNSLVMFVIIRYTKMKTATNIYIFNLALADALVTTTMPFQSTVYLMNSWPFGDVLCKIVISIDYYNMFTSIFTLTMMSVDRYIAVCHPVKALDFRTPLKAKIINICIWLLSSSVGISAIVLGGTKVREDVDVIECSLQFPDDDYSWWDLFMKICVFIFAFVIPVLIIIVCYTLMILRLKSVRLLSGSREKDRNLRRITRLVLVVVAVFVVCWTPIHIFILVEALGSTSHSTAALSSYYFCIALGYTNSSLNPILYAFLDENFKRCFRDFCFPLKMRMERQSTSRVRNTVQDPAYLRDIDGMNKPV
UniProt P41146: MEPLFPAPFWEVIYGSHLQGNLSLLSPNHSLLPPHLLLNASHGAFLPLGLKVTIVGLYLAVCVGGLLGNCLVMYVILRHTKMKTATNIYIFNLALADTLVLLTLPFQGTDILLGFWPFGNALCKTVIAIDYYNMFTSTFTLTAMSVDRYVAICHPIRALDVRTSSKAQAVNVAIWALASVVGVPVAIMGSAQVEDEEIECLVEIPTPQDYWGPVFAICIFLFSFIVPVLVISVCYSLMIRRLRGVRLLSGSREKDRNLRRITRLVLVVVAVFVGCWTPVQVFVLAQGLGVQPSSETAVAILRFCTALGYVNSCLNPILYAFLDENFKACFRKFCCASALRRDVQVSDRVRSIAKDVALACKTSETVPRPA

A value given as a limit tells only on which side of the number the result lay.

A word on the Ki: it is the dissociation constant of the complex between target and ligand, obtained from inhibition or displacement. In general, EC50 refers to the concentration at which the effect is half-maximal.

Experiment [1] deals with Delta-type opioid receptor (Homo sapiens, UniProt P41143). Put plainly: Displacement of [3H]DDPDE from delta opioid receptor expressed in HEK293 cells. Background: In a radioligand displacement assay an active substance lowers the binding of a labelled ligand.
Another experiment concerns the target Mu-type opioid receptor (Homo sapiens, UniProt P35372). Put plainly: Displacement of [3H]DAMGO from mu opioid receptor expressed in HEK293 cells.
The target in experiment [2] is Kappa-type opioid receptor (Homo sapiens, UniProt P41145). In words: Displacement of [3H]U-69593 from kappa opioid receptor expressed in HEK293 cells.
Experiment [3] addresses T1, Nociceptin receptor (Homo sapiens, UniProt P41146). In words: Displacement of [125I]Tyr14-nociceptin from ORL1 receptor expressed in HEK293 cells.
In experiment [4] the target is T1, Nociceptin receptor. In words: Agonist activity at ORL1 receptor expressed in HEK293 cells by calciun flux assay.

Regarding `Clc1cccc2c(C3CCN(CC4CCCCCCC4)CC3)c[nH]c12`, the Ki in experiment [1] is over 5000 nM; at Mu-type opioid receptor, 430 nM; in experiment [2], 1170 nM; on Nociceptin receptor [3], 660 nM.
In the case of `c1ccc(Oc2ccc(CN3CCC(c4c[nH]c5ncccc45)CC3)cc2)cc1`, the inhibition constant (Ki) in experiment [1] is over 5000 nM; at Mu-type opioid receptor it was 330 nM; in experiment [2], over 5000 nM; at Nociceptin receptor [3] it was over 5000 nM.
Regarding `c1cnc2[nH]cc(C3CCN(CC4CCCCC4)CC3)c2c1`, the Ki in experiment [1] was over 5000 nM; on Mu-type opioid receptor, over 5000 nM; in experiment [2] it was over 5000 nM; at Nociceptin receptor [3], 3500 nM.
As to `Fc1ccc2c(C3CCN(C4Cc5cccc6cccc4c56)CC3)c[nH]c2c1` (configuration not stated), the Ki in experiment [1] was over 5000 nM; at Mu-type opioid receptor it was 900 nM; in experiment [2], over 5000 nM; on Nociceptin receptor [3], 52 nM.
For the compound `Clc1ccc2c(C3CCN(C4Cc5cccc6cccc4c56)CC3)cn(Cc3ccccc3)c2c1` (configuration not stated), the inhibition constant (Ki) (in experiment [1]; on Mu-type opioid receptor; in experiment [2]; at Nociceptin receptor [3]) was over 5000 nM in each case.
For the compound `Clc1cccc2c(C3CCN(C4Cc5cccc6cccc4c56)CC3)c[nH]c12` (configuration not stated), the Ki is over 5000 nM in experiment [1], 260 nM on Mu-type opioid receptor, 2600 nM in experiment [2] and 57 nM on Nociceptin receptor [3]. At Nociceptin receptor [4], the half-maximal effective concentration (EC50) was over 80000 nM.
In the case of `c1ccc2c(CN3CCC(c4c[nH]c5ncccc45)CC3)cccc2c1`, the Ki in experiment [1] is over 5000 nM; at Mu-type opioid receptor, 340 nM; in experiment [2] it was 710 nM; on Nociceptin receptor [3], 820 nM.
As to `N#Cc1ccc2c(c1)c(C1=CCN(C3Cc4cccc5cccc3c45)CC1)cn2C[C@H](O)CN` (some centres not stated), the Ki in experiment [1] was over 5000 nM; at Mu-type opioid receptor it was 4140 nM; in experiment [2] it was over 5000 nM; at Nociceptin receptor [3], 1650 nM.
`Cn1cc(C2CCN(C3Cc4cccc5cccc3c45)CC2O)c2cccnc21` (configuration not stated): the inhibition constant Ki was over 5000 nM in experiment [1], 170 nM on Mu-type opioid receptor, 4300 nM in experiment [2] and 2 nM at Nociceptin receptor [3].
`CC(C)(C)C1CCC(C(=O)N2CCC(c3c[nH]c4ncccc34)CC2)CC1` (configuration not stated): the Ki (in experiment [1]; on Mu-type opioid receptor; in experiment [2]; at Nociceptin receptor [3]) was over 5000 nM in each case.
Regarding `OCCn1cc(C2CCN(C3Cc4cccc5cccc3c45)CC2)c2cccnc21` (configuration not stated), the Ki in experiment [1] is over 5000 nM; at Mu-type opioid receptor it was 530 nM; in experiment [2] it was over 5000 nM; on Nociceptin receptor [3], 94 nM.
For `Fc1ccc2[nH]cc(C3CCN(C4Cc5cccc6cccc4c56)CC3)c2c1` (configuration not stated), the inhibition constant Ki in experiment [1] was over 5000 nM; at Mu-type opioid receptor, 500 nM; in experiment [2], 1890 nM.
As to `c1cnc2[nH]cc(C3CCN(CC4CCCCCCC4)CC3)c2c1`, the Ki is over 5000 nM in experiment [1], 2000 nM at Mu-type opioid receptor, 3890 nM in experiment [2] and 550 nM at Nociceptin receptor [3].
As for `Fc1ccc2[nH]cc(C3CCN(Cc4cccc5ccccc45)CC3)c2c1`, the Ki in experiment [1] was over 5000 nM; on Mu-type opioid receptor it was 500 nM; in experiment [2], 820 nM; at Nociceptin receptor [3], 800 nM.
For `Fc1ccc2c(C3=CCN(C4Cc5cccc6cccc4c56)CC3)c[nH]c2c1` (configuration not stated), in that order: over 5000 nM, over 5000 nM, over 5000 nM and 160 nM.
In the case of `CN(C)C[C@@H](O)Cn1cc(C2CCN(CC3CCCCCCC3)CC2)c2cc(F)ccc21`, the Ki was over 5000 nM in experiment [1], 2700 nM on Mu-type opioid receptor, 1900 nM in experiment [2] and 970 nM on Nociceptin receptor [3].
In the case of `Clc1ccc2[nH]cc(C3=CCN(Cc4ccccc4)CC3)c2c1`, the inhibition constant Ki is over 5000 nM in experiment [1], 500 nM at Mu-type opioid receptor, 1010 nM in experiment [2] and over 5000 nM at Nociceptin receptor [3].
For the compound `c1cc2c3c(cccc3c1)C(N1CCC(c3c[nH]c4ncccc34)CC1)C2` (configuration not stated), the Ki in experiment [1] was over 5000 nM; on Mu-type opioid receptor, 390 nM; in experiment [2], 2780 nM; at Nociceptin receptor [3], 4 nM.
Turning to `CCCCCCN1CCC(c2c[nH]c3ncccc23)CC1`, the Ki (in experiment [1]; on Mu-type opioid receptor; in experiment [2]; at Nociceptin receptor [3]) was over 5000 nM each time.
`Cc1[nH]c2ccc(Cl)cc2c1C1CCN(Cc2cccc3ccccc23)CC1`: the Ki was over 5000 nM in experiment [1], 880 nM at Mu-type opioid receptor, 750 nM in experiment [2] and over 5000 nM at Nociceptin receptor [3].
As to `Cc1[nH]c2ccc(Cl)cc2c1C1CCN(C2Cc3cccc4cccc2c34)CC1` (configuration not stated), the Ki was 2750 nM in experiment [1], 260 nM at Mu-type opioid receptor, 680 nM in experiment [2] and 10 nM on Nociceptin receptor [3].
Regarding `Cn1cc(C2CCN(C3Cc4cccc5cccc3c45)CC2)c2cccnc21` (configuration not stated), the Ki was over 5000 nM in experiment [1], 900 nM on Mu-type opioid receptor, over 5000 nM in experiment [2] and 81 nM at Nociceptin receptor [3].
For the compound `N#Cc1ccc2[nH]cc(C3=CCN(C4Cc5cccc6cccc4c56)CC3)c2c1` (configuration not stated), the Ki (in experiment [1]; on Mu-type opioid receptor; in experiment [2]; at Nociceptin receptor [3]) was over 5000 nM throughout.
For the compound `CN(C)C[C@@H](O)Cn1cc(C2CCN(C3Cc4cccc5cccc3c45)CC2)c2ccc(F)cc21` (some centres not stated), the Ki in experiment [1] was over 5000 nM; on Mu-type opioid receptor it was 760 nM; in experiment [2] it was over 5000 nM; on Nociceptin receptor [3] it was 62 nM.
In the case of `Fc1ccc2[nH]cc(C3CCN(CC4CCCCCCC4)CC3)c2c1`, the Ki in experiment [1] was over 5000 nM; on Mu-type opioid receptor, 1080 nM; in experiment [2], 180 nM; on Nociceptin receptor [3], 290 nM.
Consider `CC(=O)OC1CN(C2Cc3cccc4cccc2c34)CCC1c1cn(C)c2ncccc12` (configuration not stated), for which the Ki (in experiment [1]; at Mu-type opioid receptor; in experiment [2]; at Nociceptin receptor [3]) was over 5000 nM throughout.
Take `Cc1[nH]c2ccc(Cl)cc2c1C1CCN(CC2CCCCCCC2)CC1`: the Ki in experiment [1] was 4180 nM; on Mu-type opioid receptor, 1360 nM; in experiment [2], 330 nM; on Nociceptin receptor [3], 710 nM.
Take `Clc1ccc2[nH]cc(C3CCN(Cc4ccccc4)CC3)c2c1`: the Ki in experiment [1] was over 5000 nM; at Mu-type opioid receptor, 230 nM; in experiment [2], 330 nM; on Nociceptin receptor [3] it was 1140 nM.
